Data on 1 substance can be found in patent publication US8637026B2, “Anti-C35 antibody combination therapies and methods” (Vaccinex, Inc., priority 2007, dated 2014).

The test system of one assay is metastatic breast cancer. Particulars: cited from earlier work.
The test system of another assay is BT474 cells. Nature of the assay: AnnexinV/Sytox Green FACS and anti-C35 surface staining of trastuzumab-treated BT474 cells (Example 3). Particulars: 4 ug/ml, 5 days. It counts as cell-based, human.
Setting [1] is: monotherapy, metastatic breast cancer patients.

Take “trastuzumab: recombinant humanized monoclonal anti-HER2 antibody (Herceptin, Genentech)”: in the assay with metastatic breast cancer (at 5.8 months), the patients progression free result is reported as “Twenty-four”. Besides, in the assay on metastatic breast cancer (setting [1]), the “median duration of response” value is on record as 9.1 months, the median survival is 12.8 months, the overall response rate was 14% and the partial responders is 12%. In addition, in the assay with BT474 cells, the “C35 translocation to the outer cell membrane (anti-C35 antibody staining)” value was “translocate the C35 protein to the outer cell membrane”, the “Percentage of cells Dead (AnnexinV+/Sytox Green hi)” value was 4.28%, the “Percentage of cells Early Apoptotic (AnnexinV+/Sytox Green−)” value is listed as 0.65% and the “Percentage of cells Late Apoptotic (AnnexinV+/Sytox Green low)” value came to 2.91%.
